Measurements published in BindingDB's records for doi:10.1124/jpet.102.047118 (Juvantia Pharma, 2003).

The chains behind the UniProt entries cited, without tags or fusion partners. Where a name states a change or a piece, a line headed by the entry shows the natural chain unless it says otherwise.
UniProt Q9Y5X5: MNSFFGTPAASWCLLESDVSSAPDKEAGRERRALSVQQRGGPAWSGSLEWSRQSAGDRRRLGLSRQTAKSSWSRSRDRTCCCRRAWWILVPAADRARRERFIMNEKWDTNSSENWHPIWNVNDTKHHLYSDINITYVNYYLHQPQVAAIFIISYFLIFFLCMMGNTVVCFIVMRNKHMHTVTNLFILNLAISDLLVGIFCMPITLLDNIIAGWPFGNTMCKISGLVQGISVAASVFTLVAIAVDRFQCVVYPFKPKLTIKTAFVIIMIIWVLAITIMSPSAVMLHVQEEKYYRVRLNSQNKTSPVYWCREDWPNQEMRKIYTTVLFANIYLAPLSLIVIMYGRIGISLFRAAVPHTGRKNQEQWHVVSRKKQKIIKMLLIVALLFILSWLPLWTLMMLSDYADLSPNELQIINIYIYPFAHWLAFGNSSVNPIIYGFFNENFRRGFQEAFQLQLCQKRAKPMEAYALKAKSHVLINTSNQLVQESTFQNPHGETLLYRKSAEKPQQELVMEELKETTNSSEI

Legend:
[1] = molecular target: Neuropeptide FF receptor 2 (Homo sapiens, UniProt Q9Y5X5)

CSCC[C@H](NC(=O)[C@@H](N)Cc1ccccc1)C(=O)N[C@@H](CCCN=C(N)N)C(=O)N[C@@H](Cc1ccccc1)C(N)=O [CAS_68615]
Ki: 2.2 nM
Ki [1]: 13 nM
